Yeast mating assay 1: variants of the scFv Ab-14

Source: Engelhart et al. 2022 (doi:10.1038/s41597-022-01779-4), MIT Lincoln Laboratory and A-Alpha Bio; data file from the FLAb repository.

Target peptide (SARS-CoV-2 spike, HR2 region): PDVDLGDISGINAS

The variants keep the light chain, the linker and the frameworks of Ab-14 (scFv order VH, a 15-residue (Gly4Ser)3 linker, VL).
VH: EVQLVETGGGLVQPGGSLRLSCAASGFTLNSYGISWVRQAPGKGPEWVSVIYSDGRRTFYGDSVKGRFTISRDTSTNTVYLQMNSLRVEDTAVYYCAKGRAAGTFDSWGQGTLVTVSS
VL: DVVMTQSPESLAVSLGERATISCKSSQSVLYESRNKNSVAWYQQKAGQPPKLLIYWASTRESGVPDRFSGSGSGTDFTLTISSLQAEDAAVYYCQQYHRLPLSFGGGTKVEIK

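The parent was found by panning a naive human phage display library on the peptide. Variants in AAYL49 differ from the parent at up to three CDR positions; double and triple changes were sampled at random. Affinity was read by AlphaSeq, a pooled yeast mating assay with surface-displayed partners. Pairs that bind mate more often; barcode pairs of the diploids are counted by sequencing. Each replicate has its own calibration line, from reference interactions of the BCL2 family. Each pool was mated in three replicate cultures.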

Variants are written as CDR1, CDR2 and CDR3 of the heavy chain (limits as in the source). Parent: GFTLNSYGIS, VIYSDGRRTFYGDSVK, GRAAGTFDS.
Every variant below is changed at T58 of the VH (sequential numbering).
Values are apparent Kd, the geometric mean of the replicates that gave a signal; lower means stronger binding.
"nd" marks a missing value. The strain was present, yet no cells mated with the target were sequenced in any replicate, which points to weak or no binding.
Order: sorted from the lowest average up, undetected variants last.
Nonspecific signal, from three strains lacking the peptide, appeared in 15% of pairings of library AAYL49, centred on 11 µM (5% of these signals below 680 nM); values are not corrected for it.

For GFTLNSYGIS, VIYSDGRKCFYGDSVK, GSAAGTFDS, the assay gave 3.5 nM (3 of 3 replicates).
For GFTLNSYGIS, VIYSDGQRNFYGDSVK, GRAKGTFDS, the assay gave 69 nM (3 of 3 replicates).
For GFTLNSYGIS, VIYSDGRRAFYGDSVD, GRAAGTFDS, the assay gave 85 nM (3 of 3 replicates).
For GFTLNSYGIS, VIYSDGRRGFYGDSVK, GRAAGTFDS, the assay gave 150 nM (1 of 3 replicates).
For GFTLNSYGIS, VIYSDGRRHMYGDSVK, GRAAGTFDS, the assay gave 150 nM (3 of 3 replicates).
For GFTLNSYGIS, VIYSDGRRHFYGDSVK, GRAAGTFDQ, the assay gave 250 nM (3 of 3 replicates).
For GFTLNSYGIS, VIYSDGRRCFYGDSVK, GRAAGLFDS, the assay gave 310 nM (3 of 3 replicates).
For GFTLNSYGIS, VIYSDGRRIFTGDSVK, GRVAGTFDS, the assay gave 350 nM (3 of 3 replicates).
For GFTLNSYSIS, VIYSDGRRRVYGDSVK, GRAAGTFDS, the assay gave 1.3 µM (1 of 3 replicates).
For GNTLNSYGIS, VIYSDGRRKFYGDSVK, IRAAGTFDS, the assay gave 1.5 µM (1 of 3 replicates).
For GFTLNSYGIS, VIYSDGRRWFYGDSMK, GSAAGTFDS, the assay gave 3.0 µM (1 of 3 replicates).
For GNTLNSYGYS, VIYSDGRRDFYGDSVK, GRAAGTFDS, the assay gave 3.1 µM (1 of 3 replicates).
For GATLNSYGIS, VIYSDGRRVQYGDSVK, GRAAGTFDS, the assay gave 3.3 µM (3 of 3 replicates).
For GFTLNSYGIS, VIYCDGFRLFYGDSVK, GRAAGTFDS, the assay gave 3.6 µM (1 of 3 replicates).
For GFTLNSYGIS, VIYSDGRRAWYGDSVK, GRAAGKFDS, the assay gave 4.3 µM (1 of 3 replicates).
For GFTLNSYGIS, VIYSDIRRFFYGDSVF, GRAAGTFDS, the assay gave 5.3 µM (1 of 3 replicates).
For GFTLNSYGIS, VIYSDRRRMFYGDSVK, GRAAGTFDS, the assay gave 8.4 µM (1 of 3 replicates).
For GFTLNSYGIS, EIYSDGRRCFYGLSVK, GRAAGTFDS, the assay gave 19 µM (1 of 3 replicates).
For GFTLNSYGSS, VIYSDGRRHFYGDSVK, GRKAGTFDS, the assay gave 24 µM (2 of 3 replicates).
For GFTLNSYGIS, VEYSDGRRPFYGDSIK, GRAAGTFDS, the assay gave 28 µM (1 of 3 replicates).
For GFTLNSYGIS, VIYSDGRRMFYGDSVK, GRAAGTDDK, the assay gave 38 µM (2 of 3 replicates).
For GFTLNSYGIS, VIYSDGRLGFYGGSVK, GRAAGTFDS, the assay gave 55 µM (2 of 3 replicates).
For GFTLNSYGIS, HIYSDGRRIFYGDWVK, GRAAGTFDS, the assay gave 57 µM (1 of 3 replicates).
For GFTLNSYSIS, VIYSDGCRMFYGDSVK, GRAAGTFDS, the assay gave 96 µM (2 of 3 replicates).
For GFHLNSYGIS, VIYSDGRRNFCGDSVK, GRAAGTFDS, the assay gave 180 µM (2 of 3 replicates).
For GFTLNSYGIS, VIYSDGRVMFYGDSVK, GRAAKTFDS, the assay gave nd (0 of 3 replicates).
For GFTHNSYGIS, VIYSDGRRHFYGDSNK, GRAAGTFDS, the assay gave nd (0 of 3 replicates).
For GFTLWSYAIS, VIYSDGRRWFYGDSVK, GRAAGTFDS, the assay gave nd (0 of 3 replicates).
For GFTLNSWGIS, VIYSDGRRKFYGDSVK, GHAAGTFDS, the assay gave nd (0 of 3 replicates).
For GFTLNSYGIS, VSYSSGRRCFYGDSVK, GRAAGTFDS, the assay gave nd (0 of 3 replicates).
For GFTLNSYGIS, VIYSDGRRNFYGISQK, GRAAGTFDS, the assay gave nd (0 of 3 replicates).
For GFTLNSYGIS, VIYSDGRRSFYMDSVK, FRAAGTFDS, the assay gave nd (0 of 3 replicates).
For GFTLNSYGIS, VIYSDGRRMFYGDSVK, GRAADTFDV, the assay gave nd (0 of 3 replicates).
For GFTLNSYGYS, VIYSDGRRYGYGDSVK, GRAAGTFDS, the assay gave nd (0 of 3 replicates).
For GFTLNSYGIS, VIYSEGRRLFAGDSVK, GRAAGTFDS, the assay gave nd (0 of 3 replicates).
For FFTLNSYGIS, VIYSDGRRCFYGDSVK, GRAAGTFDH, the assay gave nd (0 of 3 replicates).
For GFTRNSYGIS, VIYSDGRREFYDDSVK, GRAAGTFDS, the assay gave nd (0 of 3 replicates).
For GFTLNSYGIS, VIYSDGRRQFYGDSIK, GRAALTFDS, the assay gave nd (0 of 3 replicates).
For GFTLNSYGIS, VIYSDGRRRFYGDSVK, GRAAGLFDK, the assay gave nd (0 of 3 replicates).
For GFTLNCYGIS, VCYSDGRRRFYGDSVK, GRAAGTFDS, the assay gave nd (0 of 3 replicates).
For GFTLQSEGIS, VIYSDGRRYFYGDSVK, GRAAGTFDS, the assay gave nd (0 of 3 replicates).
For GFTLNSYGIS, VIYSDGRRGFYGDSVD, GRAAQTFDS, the assay gave nd (0 of 3 replicates).
For GFTLNSYGPS, VIYSDGRRVFYGDSVK, GRAASTFDS, the assay gave nd (0 of 3 replicates).
For GFTLNSYGIS, VIYSDGCRDFYGDSVK, GRAAGTFMS, the assay gave nd (0 of 3 replicates).
For GFTLNSYGIS, VIYSDWRRFFYGDSVG, GRAAGTFDS, the assay gave nd (0 of 3 replicates).

Repeated from above, the 6 best binders with a signal in all replicates:

CDR-H1	CDR-H2	CDR-H3	Kd	replicates with signal
GFTLNSYGIS	VIYSDGRKCFYGDSVK	GSAAGTFDS	3.5 nM	3 of 3
GFTLNSYGIS	VIYSDGQRNFYGDSVK	GRAKGTFDS	69 nM	3 of 3
GFTLNSYGIS	VIYSDGRRAFYGDSVD	GRAAGTFDS	85 nM	3 of 3
GFTLNSYGIS	VIYSDGRRHMYGDSVK	GRAAGTFDS	150 nM	3 of 3
GFTLNSYGIS	VIYSDGRRHFYGDSVK	GRAAGTFDQ	250 nM	3 of 3
GFTLNSYGIS	VIYSDGRRCFYGDSVK	GRAAGLFDS	310 nM	3 of 3